Assay [1] concerns the target Josephin domain of ataxin-3, mutant Jos_I77KQ78K (human) (UniProt P54252). As to the kind of experiment: NMR 1H-15N HSQC peak intensities against time.
The target of assay [2] is Josephin domain of ataxin-3, mutant Jos_W87K (human) (UniProt P54252). In words: NMR 1H-15N HSQC peak intensities against time.

“Josephin domain of ataxin-3, mutant Jos_I77KQ78K (from UniProt P54252 1-182) (domain or fragment)” registered a half-life time of aggregation in assay [1] of 6.42 days.

Regarding “Josephin domain of ataxin-3, mutant Jos_W87K (from UniProt P54252 1-182) (domain or fragment)”, the half-life time of aggregation in assay [2] amounted to 4.66 days.

The values are drawn from PMC3005437.
